US6790447B1, “Peptides for treatment of autoimmune diseases” (priority 1994, dated 2004)

Assays:
[1] = test system: S-antigen-induced uveitis; test: S-antigen-induced uveitis after oral administration of antigens (oral tolerance); assay type: in vivo, Lewis rats; conditions: induction with S-antigen
Experimental: (§1) Groups of 8-16 Lewis rats (age 6-8 weeks, weight ca. 200 grams) have been fed with the peptide B27PD, the corresponding retinal protein (retinal S-antigen (S-Ag) or IRBP), a peptide of the retinal S-antigen (truncated equivalent to P35: PDSAg), an irrelevant control protein (ovalbumin from hen egg (OVA)), an irrelevant control peptide (B7PD) or physiological salt solution (PBS).
(§2) The peptides have been applied orally every other day at dosages of 200 μg each time dissolved in PBS, while the proteins were used in 1 mg dosages. Two days after the third and final administration of the proteins or peptides, respectively, uveitis was induced by immunization with the retinal antigens (S-antigen or IRBP, 35 or 20 μg, respectively, emulsified in adjuvant), which are well known to induce uveitis in the rat model. […]
(§3) The protective effect of orally administered antigens was clinically seen by an ameliorated course of the disease or completely missing clinical symptoms, which was confirmed by histological examination. The histological evaluation consists of a grading of inflammatory signs in the tissue and destruction of the retina, the clinical grading refers to inflammatory signs of the conjunctiva and the anterior segment of the eye, which can be observed readily and are not necessarily correlated with the visual acuity.

IRBP induced uveitis = test: IRBP-induced uveitis after oral administration of antigens (oral tolerance); assay type: in vivo, Lewis rats; conditions: induction with IRBP; oral feeding
Experimental: as §1, §2, §3

How did the “clinical symptoms reduced to” value ([1]; oral administration, compared to group fed control protein (ovalbumin), peptides 200 μg, proteins 1 mg, three doses every other day) turn out when “S-antigen: retinal S-antigen, protein from the photoreceptor layer of the eye” was run?
Its value is 41%.

And the “uveitis reduced by (histological evaluation)” value ([1]; oral feeding, compared to ovalbumin fed control groups)?
Its value is 57%.

And the therapeutic properties (IRBP induced uveitis)?
Its therapeutic properties is “no therapeutic properties”.
